Where two headings read alike, the source gives them in different places.
System: HepG2
Test: cells
Conditions: Homo sapiens
[1] = HepG2, read-out: HepG2-Gal IC50
[2] = HepG2, read-out: HepG2-Glu IC50

| Compound | IC50 [1] [µM] | IC50 [2] [µM] |
| --- | --- | --- |
| NC(=O)c1sc(N2CCOCC2)cc1OCCc1ccccc1 [Compound 1, 5-Morpholino-3-phenethoxythiophene-2-carboxamide] | > 100 | > 100 |
| O=C(NO)c1sc(N2CCOCC2)cc1OCCc1ccccc1 [Compound 16, 5-Morpholino-3-(2-phenylethoxy)thiophene-2-carbohydroxamic Acid] | 41 | 38 |
| CCNC(=O)c1sc(N2CCOCC2)cc1OCCc1ccccc1 [Compound 22, N-Ethyl-5-morpholino-3-(2-phenylethoxy)thiophene-2-carboxamide] | 57 | 47 |
| CON(C)C(=O)c1sc(N2CCOCC2)cc1OCCc1ccccc1 [Compound 25, N-Methoxy-N-methyl-5-morpholino-3-phenethoxythiophene-2-carboxamide] | 61.8 | 73.2 |
